Reference: patent US6846953B1, “Aromatic amides” (Warner Lambert Company, priority 1999, dated 2005)

Amino acid sequences for entries named in this document (tags omitted).
UniProt O77773, entry or part of it limits assumed: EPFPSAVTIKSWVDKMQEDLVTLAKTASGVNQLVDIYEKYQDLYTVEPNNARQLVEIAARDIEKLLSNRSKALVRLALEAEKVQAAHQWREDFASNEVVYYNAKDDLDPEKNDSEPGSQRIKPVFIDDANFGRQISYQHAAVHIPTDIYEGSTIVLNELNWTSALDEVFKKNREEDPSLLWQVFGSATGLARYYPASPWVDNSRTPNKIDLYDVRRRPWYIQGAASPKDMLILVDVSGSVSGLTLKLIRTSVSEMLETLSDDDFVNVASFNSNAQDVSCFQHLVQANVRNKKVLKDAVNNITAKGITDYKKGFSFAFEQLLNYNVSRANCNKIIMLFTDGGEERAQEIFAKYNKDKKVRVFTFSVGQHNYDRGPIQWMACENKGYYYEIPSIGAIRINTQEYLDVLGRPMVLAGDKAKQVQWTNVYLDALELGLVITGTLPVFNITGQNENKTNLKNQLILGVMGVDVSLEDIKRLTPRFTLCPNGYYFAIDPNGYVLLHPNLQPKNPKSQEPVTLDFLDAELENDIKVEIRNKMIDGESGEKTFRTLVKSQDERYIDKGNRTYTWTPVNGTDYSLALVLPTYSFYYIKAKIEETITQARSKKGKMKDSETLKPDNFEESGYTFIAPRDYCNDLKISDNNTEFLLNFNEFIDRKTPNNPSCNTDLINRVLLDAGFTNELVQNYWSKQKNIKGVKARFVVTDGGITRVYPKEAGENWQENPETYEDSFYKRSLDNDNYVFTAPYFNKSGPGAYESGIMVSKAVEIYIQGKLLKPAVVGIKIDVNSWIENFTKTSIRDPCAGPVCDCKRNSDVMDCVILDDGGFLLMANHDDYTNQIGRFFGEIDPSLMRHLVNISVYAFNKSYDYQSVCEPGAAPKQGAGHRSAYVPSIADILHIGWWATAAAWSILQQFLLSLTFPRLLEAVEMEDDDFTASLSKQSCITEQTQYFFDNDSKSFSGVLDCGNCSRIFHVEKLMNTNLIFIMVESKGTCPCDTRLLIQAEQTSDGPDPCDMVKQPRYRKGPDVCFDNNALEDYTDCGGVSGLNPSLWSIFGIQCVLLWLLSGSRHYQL

Target: α2δ submit of the calcium channel found in animal brain tissue (Sus scrofa, UniProt O77773)
Assay: in vitro α2δ binding assay (Gee et al.)
Conditions: read-out: IC50 (μM) at α2δ binding site

For “N-Propionyl, N-(2-Diethylaminoethyl)-3-bromobenzylamine”, which IC50 is on record?
Its IC50 is 4.81 µM.

Only a part of the results on these compounds is given; other tests are left out.
